Results from PMC8900464 (Journal of medicinal chemistry, 2022).

Assays:
T-AKT = T-AKT degradation in PC3 cells; type: cell-based, human; details: 1 μM
PC-3 xenografts = type: in vivo; details: PC3 xenograft mice, 75 mg/kg once daily IP, 22 days

| SMILES | time to maximum AKT degradation (T-AKT) | time to substantial/significant AKT degradation (T-AKT) [h] | body weight (PC-3 xenografts) |
| --- | --- | --- | --- |
| NC1(C(=O)N[C@@H](CCN2CCN(C(=O)CCOCCOCCOCCOCCOCCNc3cccc4c3C(=O)N(C3CCC(=O)NC3=O)C4=O)CC2)c2ccc(Cl)cc2)CCN(c2ncnc3[nH]ccc23)CC1 (stereo partly drawn) [Compound 35, 4-Amino-N-((1S)-1-(4-chlorophenyl)-3-(4-(1-((2-(2,6-dioxopiperidin-3-yl)-1,3-dioxoisoindolin-4-yl)amino)-3,6,9,12,15-pentaoxaoctadecan-18-oyl)piperazin-1-yl)propyl)-1-(7H-pyrrolo[2,3-d]-pyrimidin-4-yl)piperidine-4-carboxamide] | around 24 h | 8 |  |
| Cc1ncsc1-c1ccc(CNC(=O)[C@@H]2C[C@@H](O)CN2C(=O)[C@@H](NC(=O)CCCCCCCCCCC(=O)N2CCN(CC[C@H](NC(=O)C3(N)CCN(c4ncnc5[nH]ccc45)CC3)c3ccc(Cl)cc3)CC2)C(C)(C)C)cc1 [Compound 20, 4-Amino-N-((S)-1-(4-chlorophenyl)-3-(4-(12-(((S)-1-((2S,4R)-4-hydroxy-2-((4-(4-methylthiazol-5-yl)benzyl)carbamoyl)pyrrolidin-1-yl)-3,3-dimethyl-1-oxobutan-2-yl)amino)-12-oxododecanoyl)-piperazin-1-yl)propyl)-1-(7H-pyrrolo[2,3-d]pyrimidin-4-yl)-piperidine-4-carboxamide] |  | ≤ 4 | without significant body weight loss |
